## Apparent affinities of Ab-14 variants for a coronavirus HR2 peptide

From the AlphaSeq antibody data of Li et al. 2023 (doi:10.1038/s41467-023-39022-2), copy in the FLAb collection.

All variants were tested on one target, the spike HR2 peptide PDVDLGDISGINAS (SARS-CoV-2).

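Phage display of a naive human antibody library on the peptide gave the parent. Designed CDR sequences, proposed from the first random library and measured here. Their group label is 14H_En_Gen (En: ensemble of fine-tuned language models; Gen: genetic algorithm). Affinity was read by AlphaSeq, a pooled yeast mating assay with surface-displayed partners. Pairs that bind mate more often; barcode pairs of the diploids are counted by sequencing. Each replicate has its own calibration line, from reference interactions of the BCL2 family. The assay was run in six technical replicates.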

Parent: Ab-14, a human scFv built as VH, the linker GGGGSGGGGSGGGGS, VL. Only the CDRs of the heavy chain vary.
VH: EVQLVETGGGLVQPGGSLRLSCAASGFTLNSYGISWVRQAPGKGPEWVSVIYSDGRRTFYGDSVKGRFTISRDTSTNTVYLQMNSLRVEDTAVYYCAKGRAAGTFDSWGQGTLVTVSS
VL: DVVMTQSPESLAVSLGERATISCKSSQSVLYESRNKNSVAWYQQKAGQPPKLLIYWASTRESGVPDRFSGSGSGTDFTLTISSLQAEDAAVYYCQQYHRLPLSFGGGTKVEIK

Variants are written as CDR1, CDR2 and CDR3 of the heavy chain (limits as in the source). Parent: GFTLNSYGIS, VIYSDGRRTFYGDSVK, GRAAGTFDS. The read-out is the apparent dissociation constant on a log10 scale (nM): the lower, the stronger. "n.d." marks a missing value. The strain was present, yet no cells mated with the target were sequenced in that replicate, which points to weak or no binding.

{"CDR-H1": "GFDLDEYGIS", "CDR-H2": "VIYADGKRTAYTDSVK", "CDR-H3": "GENAGTFDL", "log10 Kd, replicates": "-0.42 -0.30 -0.41 -0.51 -0.51 -0.26", "control signals": "0 of 18"}
{"CDR-H1": "GFDLNEYGIS", "CDR-H2": "VIYADGMRTVYADSVK", "CDR-H3": "GQNAGTFDV", "log10 Kd, replicates": "-0.38 -0.56 -0.45 -0.87 -1.12 -0.34", "control signals": "0 of 18"}
{"CDR-H1": "GFDLNEYGIS", "CDR-H2": "VIYADGSRTAYADNVK", "CDR-H3": "GETAGTFDV", "log10 Kd, replicates": "-0.34 -0.44 -0.82 -0.42 -0.29 -0.09", "control signals": "0 of 18"}
{"CDR-H1": "GFDLNEYGIS", "CDR-H2": "VIYADGRRTAYSDSVK", "CDR-H3": "GNVAGTFDI", "log10 Kd, replicates": "-0.05 -0.26 -0.54 -0.64 -0.65 0.01", "control signals": "0 of 18"}
{"CDR-H1": "GFDLNEYGIS", "CDR-H2": "VIYADGRRTAYIDSVK", "CDR-H3": "GENAGTFDV", "log10 Kd, replicates": "0.21 -0.26 -0.34 -0.12 -0.75 -0.40", "control signals": "0 of 18"}
{"CDR-H1": "GFNLDEYGIS", "CDR-H2": "VIYADGSRTAYADSVK", "CDR-H3": "GEVAGTFDV", "log10 Kd, replicates": "-0.26 -0.32 -0.27 -0.30 -0.35 0.29", "control signals": "0 of 18"}
{"CDR-H1": "GFDLNEYGIS", "CDR-H2": "VIYADGKRTAYADSVK", "CDR-H3": "GTNAGTFDQ", "log10 Kd, replicates": "0.24 0.73 0.64 0.28 0.28 0.20", "control signals": "0 of 18"}
{"CDR-H1": "GFDLEEYGIS", "CDR-H2": "VIYADGMRTAYADSVK", "CDR-H3": "GTNAGTFDV", "log10 Kd, replicates": "1.06 0.84 0.91 1.01 1.63 1.59", "control signals": "0 of 18"}
{"CDR-H1": "GFDLNEYGIS", "CDR-H2": "VIYADGRRTAYSDSVK", "CDR-H3": "GGNAGTFDI", "log10 Kd, replicates": "0.11 -0.23 -0.36 -0.53 -0.42 -0.29", "control signals": "0 of 18"}
{"CDR-H1": "GFDLNEYGIS", "CDR-H2": "VIYADGMRTAYADTVK", "CDR-H3": "GNNAGTFDI", "log10 Kd, replicates": "-0.59 -0.59 -0.37 -0.29 -0.90 -0.21", "control signals": "1 of 18 (1.06)"}
{"CDR-H1": "GFDLNEYGIS", "CDR-H2": "VIYADGMRTAYADSVK", "CDR-H3": "GGVAGTFDV", "log10 Kd, replicates": "-1.15 -0.87 -1.06 -1.21 -1.24 -1.00", "control signals": "0 of 18"}
{"CDR-H1": "GFDLNEYGIS", "CDR-H2": "VIYADGMRTAYIDSVK", "CDR-H3": "GQNAGTFDV", "log10 Kd, replicates": "-0.46 -0.59 -0.50 -0.48 -0.45 -0.54", "control signals": "0 of 18"}
{"CDR-H1": "GFDLNEYGIS", "CDR-H2": "VIYADGKRQAYADSVK", "CDR-H3": "GNVAGTFDV", "log10 Kd, replicates": "-0.30 -0.28 -0.25 -0.56 -0.35 -0.44", "control signals": "0 of 18"}
{"CDR-H1": "GFDLNEYGIS", "CDR-H2": "VIYADGSRTAYADDVK", "CDR-H3": "GETAGTFDV", "log10 Kd, replicates": "-0.02 -0.08 -0.34 -0.44 -0.50 0.08", "control signals": "0 of 18"}
{"CDR-H1": "GFDLNEYGIS", "CDR-H2": "VIYADGMRTFYADSVK", "CDR-H3": "GQNAGTFDL", "log10 Kd, replicates": "1.28 0.97 0.53 1.69 1.26 0.99", "control signals": "0 of 18"}
{"CDR-H1": "GFDLNEYGIS", "CDR-H2": "VIYADGVRTAYVDSVK", "CDR-H3": "GENAGTFDL", "log10 Kd, replicates": "0.25 0.14 0.14 0.21 0.26 0.51", "control signals": "1 of 18 (2.57)"}
{"CDR-H1": "GFDLNEYGIS", "CDR-H2": "VIYADGQRTAYTDSVK", "CDR-H3": "GNEAGTFDV", "log10 Kd, replicates": "n.d. n.d. n.d. 0.11 n.d. n.d.", "control signals": "0 of 18"}
{"CDR-H1": "GFDLNEYGIS", "CDR-H2": "VIYADGVRTAYVDSVK", "CDR-H3": "GENAGTFDT", "log10 Kd, replicates": "0.83 n.d. 0.35 0.01 -0.07 n.d.", "control signals": "0 of 18"}
{"CDR-H1": "GFDLDEYGIS", "CDR-H2": "VIYADGRRTSYADSVK", "CDR-H3": "GENAGTFDV", "log10 Kd, replicates": "n.d. n.d. n.d. 2.39 n.d. n.d.", "control signals": "1 of 18 (0.41)"}
{"CDR-H1": "GFDLEEYGIS", "CDR-H2": "VIYADGSRTAYADSVK", "CDR-H3": "GNVAGTFDV", "log10 Kd, replicates": "-0.33 -0.27 -0.11 -0.38 -0.53 -0.22", "control signals": "0 of 18"}
{"CDR-H1": "GFDLNEYGIS", "CDR-H2": "VIYADGMRTAYADSVK", "CDR-H3": "GNLAGTFDI", "log10 Kd, replicates": "-0.20 -0.30 -0.34 -0.75 -0.99 -0.97", "control signals": "0 of 18"}

The opening 2 entries, copied out:

{"CDR-H1": "GFDLDEYGIS", "CDR-H2": "VIYADGKRTAYTDSVK", "CDR-H3": "GENAGTFDL", "log10 Kd, replicates": "-0.42 -0.30 -0.41 -0.51 -0.51 -0.26", "control signals": "0 of 18"}
{"CDR-H1": "GFDLNEYGIS", "CDR-H2": "VIYADGMRTVYADSVK", "CDR-H3": "GQNAGTFDV", "log10 Kd, replicates": "-0.38 -0.56 -0.45 -0.87 -1.12 -0.34", "control signals": "0 of 18"}

As a blank, each scFv also met three strains without target: over all heavy chain designs, 1% of these pairings were detected, typically at 2.08 and seldom below 0.84. The control count says in how many pairings with the empty strains this scFv gave a signal, with their mean in brackets. The parent sequence was in this pool as ten entries: three were never detected, three once, and four in most replicates, with averages from 0.34 to 2.37. The range of this assay differs from that of the first round, and the authors advise against merging the two. In the paper, a design with two or fewer of six values counts as a poor binder.